The entries are a selection whose mix differs from that of the whole data set. Activity calls are given as the source filed them.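 How the source made its calls: active means inhibition reaching a set limit with compound at 10 µM in the primary screen (cut at about 35% in these data); inactive means the rest.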
Target: Intestinal-type alkaline phosphatase (Homo sapiens) (UniProt P09923)
Test: blockers of intestinal alkaline phosphatase activity – biochemical, luminescence, uHTS, primary screen (AID 2544);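 further: plate controls were DMSO wells with enzyme for no effect and no-enzyme buffer wells for full effect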
Settings: purified IAP, CDP-Star luminescence, 30 min; at 10 µM; hits give high values

Amino acid sequences for entries named in this document (tags omitted).
UniProt P09923, whole entry: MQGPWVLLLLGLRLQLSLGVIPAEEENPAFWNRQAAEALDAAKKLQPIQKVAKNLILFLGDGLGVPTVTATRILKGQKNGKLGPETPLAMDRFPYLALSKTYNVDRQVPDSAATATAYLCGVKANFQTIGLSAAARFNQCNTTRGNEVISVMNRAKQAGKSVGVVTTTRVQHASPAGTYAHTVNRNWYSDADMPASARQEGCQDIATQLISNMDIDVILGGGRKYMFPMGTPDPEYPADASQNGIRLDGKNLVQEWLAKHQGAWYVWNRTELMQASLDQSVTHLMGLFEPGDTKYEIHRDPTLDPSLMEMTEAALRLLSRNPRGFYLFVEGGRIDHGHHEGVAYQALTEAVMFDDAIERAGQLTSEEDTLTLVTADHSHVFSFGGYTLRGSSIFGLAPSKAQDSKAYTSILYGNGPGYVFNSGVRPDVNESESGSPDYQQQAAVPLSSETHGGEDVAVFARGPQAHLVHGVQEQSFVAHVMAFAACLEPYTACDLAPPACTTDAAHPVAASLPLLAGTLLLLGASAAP

| SMILES | inhibition |
| --- | --- |
| CCC(=O)N(c1ccccc1)C1(COC)CCN(CCn2nnn(CC)c2=O)CC1 | inactive: 3.5% |
| CCC(=O)N(c1ccccc1)C1(COC)CCN(CCc2cccs2)CC1 | inactive: -12.5% |
